One compound from ChEMBL document CHEMBL1138586 (Bioorg Med Chem Lett, 2009) can be followed below.

Protein sequences, listed by entry. Tags and fused reporters are not part of them. Residues count along the entry.
UniProt P00747, 97-580 limits assumed: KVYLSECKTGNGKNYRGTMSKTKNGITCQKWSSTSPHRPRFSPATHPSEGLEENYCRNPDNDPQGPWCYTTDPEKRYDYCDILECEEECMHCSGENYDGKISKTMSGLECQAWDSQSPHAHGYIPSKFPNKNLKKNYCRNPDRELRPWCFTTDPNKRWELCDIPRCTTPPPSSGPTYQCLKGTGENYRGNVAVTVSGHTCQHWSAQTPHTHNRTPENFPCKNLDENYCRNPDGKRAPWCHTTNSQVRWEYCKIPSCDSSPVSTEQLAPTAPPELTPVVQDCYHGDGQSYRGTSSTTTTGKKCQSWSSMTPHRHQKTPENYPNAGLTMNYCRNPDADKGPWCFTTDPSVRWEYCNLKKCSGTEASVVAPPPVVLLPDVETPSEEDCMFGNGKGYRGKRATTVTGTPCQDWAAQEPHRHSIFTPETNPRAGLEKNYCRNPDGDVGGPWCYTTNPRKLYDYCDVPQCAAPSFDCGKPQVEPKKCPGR
UniProt P00747, 581-810 limits assumed: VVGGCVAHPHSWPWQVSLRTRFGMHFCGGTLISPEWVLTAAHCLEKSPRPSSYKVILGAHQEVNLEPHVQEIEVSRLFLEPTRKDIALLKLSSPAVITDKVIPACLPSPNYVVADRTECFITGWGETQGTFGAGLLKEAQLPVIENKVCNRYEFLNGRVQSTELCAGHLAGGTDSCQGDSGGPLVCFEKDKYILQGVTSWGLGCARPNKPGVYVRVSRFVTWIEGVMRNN

Bounds are passed on as bounds.

The target of the experiment is Plasminogen (Homo sapiens, UniProt P00747). As to the kind of experiment: Inhibition of plasmin.

In turn, `COc1ccc(NC(=O)c2ccc(C(=N)N(C)C)cc2F)c(C(=O)Nc2ccc(Cl)cn2)c1` had an IC50 above 10 µM.
